# Antibody variant affinities, Ab-95 light chain, assay 2

Reference: Engelhart et al. 2022, doi:10.1038/s41597-022-01779-4. File: FLAb, binding data.

Target: peptide PDVDLGDISGINAS, taken from heptad repeat 2 (HR2) of SARS-CoV-2 spike.

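The starting antibody came from a phage panning campaign against this peptide. In library AAYL52, one, two or three CDR residues were substituted; doubles and triples were drawn at random. The scFvs were displayed on barcoded MATa yeast, the peptide on MATalpha yeast. The frequency of each diploid, read from paired DNA barcodes, reflects how well the two displayed proteins bind. A regression on co-assayed BCL2-family reference pairs converts the normalised counts of each replicate to an apparent Kd. Each pool was mated in three replicate cultures.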

Parent scFv Ab-95: VH joined to VL by a 15-residue (Gly4Ser)3 linker. Changes lie in the light chain CDRs alone.
VH: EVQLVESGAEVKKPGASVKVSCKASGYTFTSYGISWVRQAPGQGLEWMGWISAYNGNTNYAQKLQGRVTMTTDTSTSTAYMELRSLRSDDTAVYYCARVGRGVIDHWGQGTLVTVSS
VL: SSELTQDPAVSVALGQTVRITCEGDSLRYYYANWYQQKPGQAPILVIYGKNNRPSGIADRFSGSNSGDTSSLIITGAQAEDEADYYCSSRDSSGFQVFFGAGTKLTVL

Variants are written as CDR1, CDR2 and CDR3 of the light chain (limits as in the source). Parent: EGDSLRYYYAN, GKNNRPS, SSRDSSGFQVF.
This list gathers variants with a substitution at N51 (VL, numbered from residue 1).
Scale: log10 of Kd in nM, estimated from mating counts; low values are strong binders.
Averages over replicates are reported, and they cover detected replicates only.
Where no diploid with the target was found in any replicate, the entry reads "nd": below detection, most likely a poor binder, though not proof of it.

Variant EGDSLRYYYAN / GKPNRPS / SSHDSSGFQVF showed 4.11 (2 of 3 replicates; controls 0 of 9). Variant EGDPLRYYYAN / GDGNRPS / SSRDSSGFQVF gave 2.36 (3 of 3 replicates; controls 8 of 9). For CGDSLRYYYAN / GKKNRPS / SSRDSSGFQVF, the assay gave 4.24 (1 of 3 replicates; controls 0 of 9). For EGDSLRMYYMN / GKANRPS / SSRDSSGFQVF, the assay gave nd (0 of 3 replicates; controls 2 of 9). Variant EGDQLRYYYAN / GKINRPE / SSRDSSGFQVF showed 3.59 (2 of 3 replicates; controls 2 of 9).

For EGDSLRYYYAN / GKWNRCS / SSRDSTGFQVF, the assay gave 4.65 (2 of 3 replicates; controls 3 of 9). Variant EGDSLGYYYAN / GKFNRPS / SSRDSSGFQNF showed nd (0 of 3 replicates; controls 1 of 9). With EGDSLRYYYAN / IKHNLPS / SSRDSSGFQVF the result was 4.17 (3 of 3 replicates; controls 2 of 9). For EGDSLRYYYAN / GYINRPS / RSRDSSGFQVF, the assay gave 3.80 (2 of 3 replicates; controls 8 of 9). Variant EGDSLRYYYAN / GKWERPS / SSTDSSGFQVF gave 4.61 (1 of 3 replicates; controls 2 of 9).

With EGDHLRYYYAN / GKGNRPS / SSRDSSGFQVF the result was 2.81 (3 of 3 replicates; controls 4 of 9). With EGDSLRYYYAN / GKWNRPS / SSRDSDGDQVF the result was 3.79 (3 of 3 replicates; controls 5 of 9). For EGDSLRYYYAN / GKGNRTS / SSRDSSGFQHF, the assay gave 4.39 (3 of 3 replicates; controls 5 of 9). Variant EHDSLRYYYAN / GKPNRPS / SSSDSSGFQVF gave 4.40 (1 of 3 replicates; controls 2 of 9). With EGDSLRYYYAD / GKKNLPS / SSRDSSGFQVF the result was 4.71 (2 of 3 replicates; controls 2 of 9).

For EGDSLRYYVAI / GKINRPS / SSRDSSGFQVF, the assay gave 3.33 (3 of 3 replicates; controls 5 of 9). With EGDSLRYYYAN / GKGNRPL / SSRDSSGFRVF the result was 2.50 (3 of 3 replicates; controls 1 of 9). Variant EGDSLRYYYAN / GKLGRPS / SSRDSSGFCVF showed 4.03 (3 of 3 replicates; controls 3 of 9). Variant EGDSLRYYYAQ / GKHNRPS / SSTDSSGFQVF showed nd (0 of 3 replicates; controls 0 of 9). For EGDSLRYYYAN / GKHNRPS / DERDSSGFQVF, the assay gave 3.02 (3 of 3 replicates; controls 5 of 9).

For EGDSLRYYYAN / GKWNRPS / SSRDQSGNQVF, the assay gave 3.76 (2 of 3 replicates; controls 1 of 9). With EGDLLRYCYAN / GKVNRPS / SSRDSSGFQVF the result was 3.84 (1 of 3 replicates; controls 5 of 9). Variant EGDSADYYYAN / GKENRPS / SSRDSSGFQVF showed 5.17 (1 of 3 replicates; controls 3 of 9). Variant EGDSLRYYYAN / GKQNRGS / SSRDSSGFQPF showed 2.98 (3 of 3 replicates; controls 5 of 9). Variant EGAYLRYYYAN / GKGNRPS / SSRDSSGFQVF showed 2.18 (1 of 3 replicates; controls 2 of 9).

With EGDSLRYYYAN / GKVNRPF / GSRDSSGFQVF the result was 3.40 (1 of 3 replicates; controls 1 of 9). With EGDSLRYYYAL / GKRNRPS / MSRDSSGFQVF the result was 4.87 (1 of 3 replicates; controls 3 of 9). With EGDSLRYYYAK / GKMNRPS / SSRGSSGFQVF the result was 3.39 (1 of 3 replicates; controls 3 of 9). For SGDSLRYYYAN / GKCNRNS / SSRDSSGFQVF, the assay gave 3.41 (3 of 3 replicates; controls 2 of 9). Variant EGDSLRYYYAN / GKFNRPS / SSRKSSGFQVP gave nd (0 of 3 replicates; controls 2 of 9).

With EGDSLRYYYAN / GKQNRPS / DSRDSSGFQVF the result was 3.34 (3 of 3 replicates; controls 2 of 9). With EGMSLRYYYAN / GKVNRPS / SSRDSSGFQVF the result was 3.84 (2 of 3 replicates; controls 2 of 9). For EGDSLRYYWAN / GKYNRPS / SSRDSSGSQVF, the assay gave 3.96 (3 of 3 replicates; controls 4 of 9). Variant EGDSLRYYYAN / GKLNRPS / SSRLCSGFQVF gave 3.85 (3 of 3 replicates; controls 4 of 9). For EGDSLRYYYAN / GKPNRPS / SSRDSSGFWVF, the assay gave 3.48 (2 of 3 replicates; controls 4 of 9).

For EGDSLFYYYAN / GKPNRCS / SSRDSSGFQVF, the assay gave 3.53 (2 of 3 replicates; controls 5 of 9). Variant EGDSLRYYYAN / GKLNRPS / SSRDTSGFQVF gave nd (0 of 3 replicates; controls 1 of 9). Variant EGDSLRYYYAN / GKDNRPS / SSRDSSGFQWF gave nd (0 of 3 replicates; controls 0 of 9). With EGDSLWYYYAN / GKGNRPT / SSRDSSGFQVF the result was 4.34 (1 of 3 replicates; controls 0 of 9). For EGDSLRYYNAN / GKHNRKS / SSRDSSGFQVF, the assay gave 2.57 (2 of 3 replicates; controls 1 of 9).

Variant EGDSLRYYYAN / GKVNMMS / SSRDSSGFQVF showed nd (0 of 3 replicates; controls 0 of 9). For EGASLRYYYAN / GKSNRPS / SSRDISGFQVF, the assay gave 3.04 (3 of 3 replicates; controls 5 of 9). With EGRSLRYYYAN / GKINRPS / SSLDSSGFQVF the result was 3.84 (2 of 3 replicates; controls 3 of 9). Variant ENDSLRYYYAN / GKINRPS / SSRDGSGFQVF gave 5.04 (2 of 3 replicates; controls 4 of 9). For EGDSLRYYYAN / AKLNRPS / SSRDSSGAQVF, the assay gave nd (0 of 3 replicates; controls 3 of 9).

Extract of 4 entries:

{"CDR-L1": "EGDHLRYYYAN", "CDR-L2": "GKGNRPS", "CDR-L3": "SSRDSSGFQVF", "log10 Kd (nM), mean": "2.81", "replicates with signal": "3 of 3", "control signals": "4 of 9"}
{"CDR-L1": "EGDSLRYYYAN", "CDR-L2": "GKPNRPS", "CDR-L3": "SSRDSSGFWVF", "log10 Kd (nM), mean": "3.48", "replicates with signal": "2 of 3", "control signals": "4 of 9"}
{"CDR-L1": "EGDQLRYYYAN", "CDR-L2": "GKINRPE", "CDR-L3": "SSRDSSGFQVF", "log10 Kd (nM), mean": "3.59", "replicates with signal": "2 of 3", "control signals": "2 of 9"}
{"CDR-L1": "EGMSLRYYYAN", "CDR-L2": "GKVNRPS", "CDR-L3": "SSRDSSGFQVF", "log10 Kd (nM), mean": "3.84", "replicates with signal": "2 of 3", "control signals": "2 of 9"}

Parent in this assay: reference entry 2.31, copy in this library 2.25.
Background: pairings of library AAYL52 with three empty control strains gave a value in 28% of cases (median 3.91, 5th percentile 2.90). Values in that range, when seen in few replicates, are hard to tell from nonspecific mating. For each scFv, signals with the empty controls are counted beside the result.